The structures appear in SMILES notation. The entries are a selection whose mix differs from that of the whole data set. Calls of active or inactive are those of the source. Calls follow the shape of the dose curve; as a rule, active = well fitted inhibition curve with a large enough effect in the polarisation, with a control signal flat; inconclusive = small, poorly fitted or top-dose-only effect, or effect the other way, or a change in a side signal; inactive = no such curve, though single readings can be large or run the other way; the % refers to the polarisation.

Sequences of proteins named here, by UniProt entry; tags and fusion partners are left off. A change or cut given only in a name is not applied to a line headed by its entry.
UniProt P11308: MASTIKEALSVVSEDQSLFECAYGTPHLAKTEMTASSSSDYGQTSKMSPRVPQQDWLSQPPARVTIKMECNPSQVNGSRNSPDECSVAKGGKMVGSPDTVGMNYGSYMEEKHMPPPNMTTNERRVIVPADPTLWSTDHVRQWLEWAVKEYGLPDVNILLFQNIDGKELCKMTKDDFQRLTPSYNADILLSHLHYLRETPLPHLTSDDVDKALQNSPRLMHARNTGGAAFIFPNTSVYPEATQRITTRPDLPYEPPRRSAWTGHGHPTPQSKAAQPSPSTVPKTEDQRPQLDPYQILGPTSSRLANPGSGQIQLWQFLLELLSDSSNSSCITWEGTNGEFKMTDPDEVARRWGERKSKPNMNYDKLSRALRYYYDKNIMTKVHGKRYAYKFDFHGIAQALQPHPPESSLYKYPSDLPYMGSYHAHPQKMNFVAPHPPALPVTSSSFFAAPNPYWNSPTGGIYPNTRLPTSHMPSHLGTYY

This is an account of results in PubChem BioAssay AID624246 (National Center for Advancing Translational Sciences (NCATS), 2012).

The assay addresses Transcriptional regulator ERG (Homo sapiens) (UniProt P11308). As to the kind of experiment: qHTS for Small Molecule Inhibitors of the ERG Ets/DNA interaction. Also: % of control where 0% means no effect. As to conditions: fluorescence polarization, His-ERG Ets domain / labelled DNA; at 76.9 µM (top of the series). The gist of the method:
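His-tagged ERG Ets domain (1 uM in the protein solution; 300mM KCl, 50mM Tris-HCl, 1mM EDTA, 1mM DTT, pH 7.5) received compound, then a probe mix of 5 nM fluorescein-DNA and 100nM Texas-615-DNA. Fluorescence polarization was read for both dyes.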
On to `CCOC(=O)c1ccc(NC(=O)C(C)(CCl)SC)cc1` (stereo not drawn), for which the FP activity, negative = inhibition was inactive: -3.76%. The value for `O=C(OC1CN2CCC1CC2)c1cccc([N+](=O)[O-])c1` (stereo not drawn) was inactive: 0.671%; that for `CCCCOc1ccc(C(=O)NCC2(N3CCCCC3)CCCCC2)cc1OC` was inactive: -5.09%. The result for `Cc1cc(SC(NC(=O)c2ccccc2)C(Cl)(Cl)Cl)nc(C(C)C)n1` (stereo not drawn) reads inactive: 1.88%; that for `CC1CCNP(=O)(N(CCCl)CCCl)O1` (stereo not drawn), inactive: 9.18%; that for `CCOC(=O)Nc1ccc([As](=O)(O)O)c(O)c1`, inactive: 11.1%. The result for `O=[N+]([O-])c1ccc(Nc2ccc(Oc3ccc([N+](=O)[O-])cc3[N+](=O)[O-])cc2)c([N+](=O)[O-])c1` reads inactive: -2.21%; that for `O=P(Nc1ccccn1)(c1cccc2ccccc12)c1cccc2ccccc12`, inactive: 10.1%; that for `Cc1cc(SC(NC=O)C(Cl)(Cl)Cl)ncn1` (stereo not drawn), inactive: -11.9%. As to `CCOC(=O)Nc1cccc([As](=O)(O)O)c1`, the FP activity, negative = inhibition was inactive: -4.11%. On to `O=C(/C=C/c1ccccc1)OC1CN2CCC1CC2` (stereo not drawn), for which the FP activity, negative = inhibition is inactive: 7.16%. The value for `CCCC1OP(=O)(Nc2ccccc2)OCC1CC` (stereo not drawn) was inactive: 7.78%. The value for `CN(C)C1(CNC(=O)c2ccc(S(C)(=O)=O)cc2)CCCCC1` was inactive: -1.96%; that for `CC1CCC(C(C)C)C(OP(=O)(Nc2ccccn2)c2ccccc2)C1` (stereo not drawn) was inactive: 2.92%; that for `Cc1ccc(C(=O)OC2CN3CCC2CC3)cc1` (stereo not drawn) was inactive: 8.43%. Consider `O=P1(Nc2ccc(Br)cn2)COc2ccccc2OC1`, for which the FP activity, negative = inhibition is inactive: -1.09%. The value for `NS(=O)(=O)c1cccc(NC(=O)COC(=O)C(O)(c2ccccc2)c2ccccc2)c1` was inactive: -2.61%; that for `O=[As](O)(c1cccs1)c1cccs1` was inactive: -6.35%. On to `Cc1ccc(OCC(=O)OC2CN3CCC2CC3)cc1` (stereo not drawn), for which the FP activity, negative = inhibition was inactive: 11.5%. `Nc1cccc([As](=O)(O)c2ccccc2)c1`: the FP activity, negative = inhibition is inactive: -2.04%.

Consider `O=P1(Nc2ncccn2)COc2ccccc2OC1`, for which the FP activity, negative = inhibition was inactive: -5.9%.

As to `Clc1n[nH]nc1-c1nn[nH][15n]1`, the FP activity, negative = inhibition was inactive: 9.16%.

For `CC(C)(C)C(=O)NC(Sc1ncccn1)C(Cl)(Cl)Cl` (stereo not drawn), the FP activity, negative = inhibition was inactive: 3.52%. Regarding `CN(CCCl)Cc1cc(Cl)c(NC2=NCCN2)c(Cl)c1`, the FP activity, negative = inhibition is inactive: 1.58%. The value for `CCOP(=O)(Nc1ccc(C)cn1)OCC` was inactive: 7.59%; that for `O=P1(Nc2ccccn2)COc2ccccc2OC1` was inactive: -3.07%.

On to `CCC1=CC2Cc3nc4ccc(Cl)cc4c(N)c3C(C1)C2` (stereo not drawn), for which the FP activity, negative = inhibition was inactive: -7.78%.

`CCOP(=O)(NC(=NC(C)c1ccccc1)NC(C)c1ccccc1)OCC` (stereo not drawn): the FP activity, negative = inhibition was inactive: -2.79%. The value for `CC1(CBr)Cn2c(nc3ccccc3c2=O)S1` (stereo not drawn) was inactive: -1.22%; that for `CC(C)/C=N\N=C(\N)N[N+](=O)[O-]` was inactive: 9.98%. For `CN(C(=O)Cc1ccc(Cl)c(Cl)c1)[C@@H]1CCCC[C@H]1N1CCCC1`, the FP activity, negative = inhibition was inactive: 3.64%. The result for `COc1ccccc1CNC(=O)COC(=O)C(O)(c1ccccc1)c1ccccc1` reads inactive: 1.74%. Take `O=[As](O)(c1cccc(O)c1)c1cccc(O)c1`: the FP activity, negative = inhibition was inactive: 106%. Turning to `Cc1cccc(OCC(=O)OC2CN3CCC2CC3)c1` (stereo not drawn), the FP activity, negative = inhibition was inactive: -0.0251%. For `COc1cc(C(=O)NCC2(N3CCOCC3)CCCCC2)cc(Cl)c1OC(C)C`, the FP activity, negative = inhibition is inactive: 12.9%. The result for `O=[As](O)(O)c1cccnc1` reads inactive: -11%. The result for `CS(=O)(=O)c1ccc(Cl)c(NC(=O)COC(=O)C(O)(c2ccccc2)c2ccccc2)c1` reads inactive: 8.94%; that for `O=C(OC1CN2CCC1CC2)c1ccc(Cl)cc1` (stereo not drawn), inactive: -10.4%; that for `COc1cc(C2NCCC3(OCCO3)C2(C)C)cc(OC)c1OC` (stereo not drawn), inactive: 2.27%. The result for `CCOP(=O)(Nc1cccc2ccccc12)OCC` reads inactive: -0.0756%. Consider `CCCOP(=S)(Nc1nc(N)cc(=O)[nH]1)OCCC`, for which the FP activity, negative = inhibition is inactive: 2.59%. The result for `Nc1cccc2c([As](=O)(O)O)cccc12` reads inactive: -1.57%; that for `Cc1ccc(NCCc2c([N+](=O)[O-])cc([N+](=O)[O-])cc2[N+](=O)[O-])cc1`, inactive: 41.5%. The value for `Nc1ccccc1[As](=O)(O)c1ccccc1` was inactive: -4.74%. The value for `O=C(O)COc1ccc([As](=O)(O)O)cc1[N+](=O)[O-]` was inactive: 4.87%; that for `CS(=O)(=O)c1cc([N+](=O)[O-])c2no[n+]([O-])c2c1` was inactive: -3.61%. Consider `O=P(Nc1nccs1)(Oc1ccccc1)Oc1ccccc1`, for which the FP activity, negative = inhibition was inactive: -0.613%.

On to `CN(C)C(=O)c1cc([N+](=O)[O-])cc2c1-c1c(cc([N+](=O)[O-])cc1[N+](=O)[O-])C2=O`, for which the FP activity, negative = inhibition was inactive: -5.73%. The value for `O=[N+]([O-])c1ccc2c(c1)nnn2O` was inactive: 7.38%.

`CN(C(=O)Cc1ccc(Cl)c(Cl)c1)[C@H]1CC[C@@]2(CCCO2)C[C@@H]1N1CCCC1`: the FP activity, negative = inhibition was inactive: 1.45%. In the case of `N#CCCN(C(=O)COC(=O)C(O)(c1ccccc1)c1ccccc1)c1ccc(F)cc1`, the FP activity, negative = inhibition was inactive: 16%. The result for `CN(C(=O)Cc1ccccc1)[C@@H]1CC[C@]2(CCCO2)C[C@H]1N1CCCC1` reads inactive: -0.458%; that for `NC(=O)Nc1ccc([As](=O)(O)O)cc1`, inactive: 8.6%.
